# Screens from PubChem BioAssay.
# uPA generation – inhibitors of cell surface uPA generation | 0.31% of 330,000 active | AID 540303 | Potency, µM (top dose mostly 38.3 µM), actives largely listed as inhibitors | cell surface uPA generation assay, qHTS; active = well fitted inhibition curve with a large enough effect; inconclusive = small, poorly fitted or top-dose-only effect; inactive = no such curve, though single readings can be large or run the other way; tested in mouse RAW 264.7 cells; also: nearly all actives have a fitted effect of over 55% in size
# miR-21 reporter – raises the signal of a miR-21 reporter; Potency, µM (doses to about 38.3 µM); HeLa miR-21 FLuc reporter, luciferase, 48 h; AID 2288; 340,000 tested, under 10 active; active = well fitted rising curve with a large enough effect; inconclusive = small, poorly fitted or top-dose-only effect; inactive = no such curve, though single readings can be large or run the other way;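 further: miR-21 action dims this reporter so a rising signal means less miR-21 action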
#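 HeLa cells stably expressing CMV-driven firefly luciferase with a downstream miR-21 binding sequence, endogenously expressing miR-21, were treated with titrations (up to about 40uM final) for 48 hours at 37 degree Celsius. Luciferase luminescence was read after lysis.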
# GALK inh – inhibitors of human galactokinase; P51570; Purified GALK, Kinase-Glo residual ATP luminescence; AID 1868; 0.007% of 270,000 active; Potency, µM (top dose mostly 57.5 µM), usual class: inhibitors
#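 ATP-depletion format; final 35 uM ATP, 100 uM D-galactose, 5 nM enzyme; pH 8.0 HEPES/Mg2+ buffer; 60 min RT; luminescence read 10 min after detection reagent.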
# Giardia killer – Giardia lamblia killing; Giardia lamblia trophozoite viability; activity change, % at 7.66 µM, hits read low; 0.15% of 340,000 active; in the data active = activity change below about -80%; inconclusive = between about -30% and that limit;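 also: parasites exposed to compound for two days anaerobically before the ATP read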
#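 Luminescent ATP signal served as the viability read-out, measured 15-30 min after adding ATP detection reagent to trophozoites that had been incubated with compounds for 48 hrs at 37 deg C anaerobically at 100 cells/well.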
# Coupling enz – coupling enzyme interference in Giardia aldolase counter-screen | coupling enzyme system counterscreen, AmpLite Red fluorescence | activity change, negative = inhibition, % at 58.2 µM, hits read low | 0.67% of 290,000 active; in the data active = activity change below about -30%
#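 Counterscreen of the coupled detection system alone, without aldolase: glyceraldehyde-3-phosphate coupling enzymes plus AmpLite Red readout. Compounds at 57.5 uM final, 10 min RT preincubation, 20 min RT reaction, fluorescence 525/598 nm.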
# B2AR arrestin – recruits beta-arrestin to the human beta2-adrenergic receptor; Potency, µM (highest dose often 46.1 µM), hits mostly activators; 0.02% of 330,000 active; P07550; beta-arrestin recruitment to beta2AR, cell-based reporter; also: nearly all actives have a fitted effect of over 65% in size
# Numbers stand for hits; – = inactive; ? = inconclusive; · = no result. Most compounds without a hit are left out; they make up all but 0.92% or so of the library. Unless noted, calls follow the shape of the dose curve; as a rule, active = well fitted curve in the direction sought with a large enough effect; inconclusive = small, poorly fitted or top-dose-only effect, or another doubt; inactive = no such curve, though single readings can be large; an effect the other way counts as inactive or inconclusive.
SMILES,uPA generation,miR-21 reporter,GALK inh,Giardia killer,Coupling enz,B2AR arrestin
Cc1nnc(C)c2c(C)n(-c3ccccc3N)c(C)c12,–,–,–,–,-40,–
Cc1nnc(C)c2c(C)n(-c3ccccc3)c(C)c12,–,–,–,–,–,–
CCN(CC)c1ccc(NC(=O)CN2CCN(S(=O)(=O)c3ccc(C(C)C)cc3)CC2)cc1,·,–,·,·,·,·
CCC(C)NC(=O)CN1C(=O)c2cccc3cccc1c23 (stereo unspecified),–,–,–,–,–,–
CCN1/C(=N\N)c2cccc3cccc1c23,–,–,–,–,-47,–
CC(Oc1ccccc1)C(=O)Nc1nnc(S(=O)(=O)N2CCCCC2)s1 (stereo unspecified),–,–,–,-84,–,–
FC(F)(F)c1ccc(N2CCOCC2)c(NC2=NCCCCC2)c1,–,–,–,–,–,–
CCOc1cc(N2CCOCC2)c(OCC)cc1NC(=O)COC(=O)C1CCCN1S(=O)(=O)c1ccccc1F (stereo unspecified),?,·,·,–,·,–
CCOc1cc(N2CCOCC2)c(OCC)cc1NC1=NCCCCC1,–,–,–,–,-32,–
CCOc1cc(N2CCOCC2)c(OCC)cc1NC(C)C(=O)N1CCC(C)CC1 (stereo unspecified),–,–,–,–,-47,–
CCOc1cc(N2CCOCC2)c(OCC)cc1NC(=O)COC(=O)[C@@H]1CCCN1S(=O)(=O)c1ccccc1F,–,–,–,–,-31,–
CCOc1cc(N2CCOCC2)c(OCC)cc1NC(=O)Cc1ccc(OC)c(OC)c1,–,–,–,–,-41,–
CCC(CC)c1nn2c(=O)cc(COc3ccc(NC(=O)c4ccccc4Cl)cc3)nc2s1,·,–,·,·,·,·
CCOc1cc(N2CCOCC2)c(OCC)cc1NC(=O)CSc1ncn[nH]1,–,–,–,–,-36,–
CCOc1cc(N2CCOCC2)c(OCC)cc1NC(=O)CSc1n[nH]c(N)n1,–,–,–,–,–,–
O=C(N/N=C/c1ccc([N+](=O)[O-])o1)c1ccc(O)cc1,7.1µM,?,–,–,–,–
O=C(N/N=C/c1ccc([N+](=O)[O-])o1)c1ccncc1,–,–,–,–,–,–
O=[N+]([O-])c1ccc(/C=N\NS(=O)(=O)c2ccc(F)cc2)o1,8.9µM,–,–,?,–,–
COc1ccc(S(=O)(=O)N/N=C\c2ccc([N+](=O)[O-])o2)c(OC)c1,?,–,–,–,·,–
O=C(N/N=C/c1ccc([N+](=O)[O-])o1)c1cc2ccccc2o1,2.5µM,?,·,-96,–,–
Cc1nc2ccccn2c1C(=O)N/N=C/c1ccc([N+](=O)[O-])cc1,–,–,–,–,–,–
Cc1nc2ccccn2c1C(=O)N/N=C/c1ccc([N+](=O)[O-])o1,?,?,–,-86,–,–
Cc1ccc(Cc2c(C)nc3nc(SCC(=O)NCCC(C)C)nn3c2C)cc1,·,–,·,·,·,·
Cc1ccc(-c2ccc(CCC(=O)O)n2-c2cccc(C)c2C)cc1,·,–,·,·,·,·
CNc1nc(-c2ccc3c(c2)CCN3C(=O)c2cccc(F)c2)cs1,7.1µM,–,–,–,–,?
SMILES,uPA generation,miR-21 reporter,GALK inh,Giardia killer,Coupling enz,B2AR arrestin
O=c1c2ccccc2cnn1-c1nc2ccccc2[nH]1,?,?,–,-91,–,–
COc1ccc(-n2c(NNC(C)=O)nc3sc4c(c3c2=O)CCCC4)cc1,7.9µM,–,·,–,–,–
CCCCCCCCCCCCCCCCCCOC[C@@H](O)COP(=O)([O-])OCC[N+](C)(C)C,·,·,·,·,–,·
Cc1ccc(O)c(CP(=O)(c2ccccc2)c2ccccc2)c1,–,–,–,–,–,–
CCNc1ccccc1CP(=O)(c1ccccc1)c1ccccc1O (stereo unspecified),–,–,–,–,-58,–
Cc1ccc(-c2cc(C3C4C=CCCC4(C)C(=O)N3Cc3ccccc3)ccc2F)cc1 (stereo unspecified),·,·,·,–,–,·
COc1ccc(-n2ncc3c(N4CCCCC4)ncnc32)cc1,1.3µM,?,–,-82,–,–
Cc1cccc(-n2ncc3c(NC4CCCCC4)ncnc32)c1,11µM,–,–,–,–,–
Cc1cccc(-n2ncc3c(N4CCOCC4)ncnc32)c1,0.79µM,–,·,?,–,–
O=c1ccc2ccccc2[nH]1,·,·,·,·,–,·
[O-][n+]1cccc2cccc(O)c21,–,·,·,–,·,·
C[n+]1cccc2cccc([O-])c21,–,–,?,–,-45,–
O=c1c(-c2ccc(Cl)cc2)nc2cnc(N3CCNCC3)nc2n1CCc1ccccc1,·,·,·,·,–,·
Cc1nc(-c2ccccc2)sc1C(=O)NN,10µM,–,–,–,–,–
CN(C)c1ccc(N/C=C/C(=O)c2ccco2)cc1,–,–,–,–,-35,–
CC(=O)Nc1ccc(N/C=C/C(=O)c2ccco2)cc1,–,–,–,–,–,–
O=C(NNC1=NS(=O)(=O)c2ccccc21)c1ccc([N+](=O)[O-])cc1,–,–,–,?,–,–
O=C(NNC1=NS(=O)(=O)c2ccccc21)c1ccc(Cl)cc1,3.5µM,–,–,?,–,–
CC(C)(C)C(=O)NC(Nc1cccc2cccnc12)C(Cl)(Cl)Cl (stereo unspecified),–,–,–,–,-66,–
CCC(=O)NC(NC(=S)Nc1cccc2cccnc12)C(Cl)(Cl)Cl (stereo unspecified),–,–,–,–,–,–
Cc1cc(O)c(C(c2ccccc2Cl)N2CCN(c3ccccc3)CC2)c(=O)n1Cc1ccco1 (stereo unspecified),·,–,·,·,·,·
N#CNC(=Nc1cccc(F)c1)SCc1ccccc1F,13µM,–,–,–,–,–
CC(C)N=C(NC#N)SCc1ccccc1F,·,–,–,–,–,–
O=C(CN1C(=O)C2CC=C(Cl)CC2C1=O)N1CCOCC1 (stereo unspecified),–,–,–,–,-36,–
COc1cc(C/C=C/c2ccccc2)c(OC)cc1O,·,·,·,·,-51,·
SMILES,uPA generation,miR-21 reporter,GALK inh,Giardia killer,Coupling enz,B2AR arrestin
CCOC(=O)c1cc2c(ccn2C)n1CC(=O)N1CCN(c2ccc(F)cc2)CC1,–,–,–,–,–,–
CCOC(=O)c1cc2c(ccn2C)n1CC(=O)N1CCN(c2cccc(C(F)(F)F)c2)CC1,–,–,–,–,-33,–
O=C1c2ccccc2S(=O)(=O)c2cc(N3CCOCC3)ccc21,2.5µM,·,·,?,·,·
CCN1C(=O)N/C(=C/c2ccc(C)o2)C1=O,–,–,–,–,–,?
CCCN1C(=O)/C(=C/c2ccc(C)o2)NC1=S,·,–,–,·,-33,–
COc1ccccc1NC(=S)N(Cc1ccco1)Cc1cc2cc(C)c(C)cc2[nH]c1=O,4µM,–,·,–,–,–
COc1ccccc1NC(=S)N(Cc1ccco1)Cc1cc2cccc(C)c2[nH]c1=O,–,–,–,–,–,–
O=C(c1ccccc1Cl)N1c2ncnn2C2(CCCCC2)[C@@H]2CCCC[C@@H]21,·,–,·,·,·,·
